Data reported in patent US20250283871A1, “COMPOSITIONS AND METHODS FOR MODULATING THE INTERACTION BETWEEN SS18-SSX FUSION ONCOPROTEIN AND NUCLEOSOMES” (Dana-Farber Cancer Institute, Inc., priority 2020, published 2025).

Assays:
[1] = molecular target: H4(20to23)K20me0 histone form in mammalian mononucleosomes from HEK-293T cells (mammalian (HEK-293T cells)) (UniProt P62805); experiment: MBP-SSX1 78aa pull-down of HEK293T mononucleosomes, targeted histone MS, sample MM05_E01
[2] = molecular target: H3K4ac1 histone form in mammalian mononucleosomes from HEK-293T cells (mammalian (HEK-293T cells)) (UniProt P68431); experiment: as above
[3] = molecular target: H2A(12to17)ac0 histone form in mammalian mononucleosomes from HEK-293T cells (mammalian (HEK-293T cells)) (UniProt P0C0S8); experiment: as above
[4] = molecular target: H4(20to23)K20me3 histone form in mammalian mononucleosomes from HEK-293T cells (mammalian (HEK-293T cells)) (UniProt P62805); experiment: as above
[5] = molecular target: H4(4to17)K12ac1K16ac1me0 histone form in mammalian mononucleosomes from HEK-293T cells (mammalian (HEK-293T cells)) (UniProt P62805); experiment: as above
[6] = molecular target: H4(4to17)ac0me0 histone form in mammalian mononucleosomes from HEK-293T cells (mammalian (HEK-293T cells)) (UniProt P62805); experiment: as above
[7] = molecular target: H2AZ(1to19)K4ac1 histone form in mammalian mononucleosomes from HEK-293T cells (mammalian (HEK-293T cells)) (UniProt P0C0S5); experiment: as above
[8] = molecular target: H3K9me2S10ph1K14ac0 histone form in mammalian mononucleosomes from HEK-293T cells (mammalian (HEK-293T cells)) (UniProt P68431); experiment: as above
[9] = molecular target: H4(20to23)K20me2 histone form in mammalian mononucleosomes from HEK-293T cells (mammalian (HEK-293T cells)) (UniProt P62805); experiment: as above
[10] = molecular target: H2B(1to29)K5ac1 histone form in mammalian mononucleosomes from HEK-293T cells (mammalian (HEK-293T cells)) (UniProt P62807); experiment: as above
[11] = molecular target: H2B(1to29)ac0 histone form in mammalian mononucleosomes from HEK-293T cells (mammalian (HEK-293T cells)) (UniProt P62807); experiment: as above
[12] = molecular target: H4(4to17)K5ac1K16ac1me0 histone form in mammalian mononucleosomes from HEK-293T cells (mammalian (HEK-293T cells)) (UniProt P62805); experiment: as above
[13] = molecular target: H4(4to17)K8ac1K12ac1me0 histone form in mammalian mononucleosomes from HEK-293T cells (mammalian (HEK-293T cells)) (UniProt P62805); experiment: as above
[14] = molecular target: H3K4me1 histone form in mammalian mononucleosomes from HEK-293T cells (mammalian (HEK-293T cells)) (UniProt P68431); experiment: as above
[15] = molecular target: HEK-293T mononucleosomes with histone H3K4ac1 (mammalian (HEK-293T cells)) (UniProt P68431); experiment: MBP-SSX1 78aa pull-down of HEK293T mononucleosomes, targeted quantitative histone MS, replicate 1
[16] = molecular target: HEK-293T mononucleosomes with histone H4(4to17)K5ac1K8ac1K12ac1me0 (mammalian (HEK-293T cells)) (UniProt P62805); experiment: as above
[17] = molecular target: HEK-293T mononucleosomes with histone H4(4to17)K16ac1me0 (mammalian (HEK-293T cells)) (UniProt P62805); experiment: as above
[18] = molecular target: HEK-293T mononucleosomes with histone H4(4to17)K5ac1me0 (mammalian (HEK-293T cells)) (UniProt P62805); experiment: as above
[19] = molecular target: HEK-293T mononucleosomes with histone H3K4me1 (mammalian (HEK-293T cells)) (UniProt P68431); experiment: as above
[20] = molecular target: HEK-293T mononucleosomes with histone H2AZ(1to19)ac0 (mammalian (HEK-293T cells)) (UniProt P0C0S5); experiment: as above
[21] = molecular target: HEK-293T mononucleosomes with histone H4(4to17)K5ac1K8ac1me0 (mammalian (HEK-293T cells)) (UniProt P62805); experiment: as above
[22] = molecular target: HEK-293T mononucleosomes with histone H3K4me0 (mammalian (HEK-293T cells)) (UniProt P68431); experiment: as above
[23] = molecular target: HEK-293T mononucleosomes with histone H4(20to23)K20me3 (mammalian (HEK-293T cells)) (UniProt P62805); experiment: as above

Substance: MBP-SSX1 (78aa) (from UniProt P0AEX9 27-392)
- log2 normalized (Light/Heavy) intensity ratio [1]: 0.092 log2
- log2 normalized (Light/Heavy) intensity ratio [2]: 0.32 log2
- log2 normalized (Light/Heavy) intensity ratio [3]: -0.12 log2
- log2 normalized (Light/Heavy) intensity ratio [4]: 0.055 log2
- log2 normalized (Light/Heavy) intensity ratio [5]: 0.304 log2
- log2 normalized (Light/Heavy) intensity ratio [6]: -0.573 log2
- log2 normalized (Light/Heavy) intensity ratio [7]: 0.048 log2
- log2 normalized (Light/Heavy) intensity ratio [8]: -1.09 log2
- log2 normalized (Light/Heavy) intensity ratio [9]: -0.391 log2
- log2 normalized (Light/Heavy) intensity ratio [10]: 0.323 log2
- log2 normalized (Light/Heavy) intensity ratio [11]: 0.16 log2
- log2 normalized (Light/Heavy) intensity ratio [12]: 0.367 log2
- log2 normalized (Light/Heavy) intensity ratio [13]: -0.093 log2
- log2 normalized (Light/Heavy) intensity ratio [14]: 0.353 log2
- log2 (Light/Heavy) ratio normalized to average of pull down input controls [15]: -0.312 log2
- log2 (Light/Heavy) ratio normalized to average of pull down input controls [16]: -0.34 log2
- log2 (Light/Heavy) ratio normalized to average of pull down input controls [17]: -0.161 log2
- log2 (Light/Heavy) ratio normalized to average of pull down input controls [18]: -0.291 log2
- log2 (Light/Heavy) ratio normalized to average of pull down input controls [19]: 0.29 log2
- log2 (Light/Heavy) ratio normalized to average of pull down input controls [20]: -0.694 log2
- log2 (Light/Heavy) ratio normalized to average of pull down input controls [21]: -0.436 log2
- log2 (Light/Heavy) ratio normalized to average of pull down input controls [22]: 0.514 log2
- log2 (Light/Heavy) ratio normalized to average of pull down input controls [23]: -0.295 log2
